This note sets out measurements from patent US7632645B1, “EGF receptor transactivation by G-protein-coupled receptors requires metalloproteinase cleavage of proHB-EGF” (Max-Planck-Gesellschaft zur forderung der Wissenschaften …, priority 1999, dated 2009).

The chains behind the UniProt entries cited, without tags or fusion partners. Where a name states a change or a piece, a line headed by the entry shows the natural chain unless it says otherwise.
UniProt P09619: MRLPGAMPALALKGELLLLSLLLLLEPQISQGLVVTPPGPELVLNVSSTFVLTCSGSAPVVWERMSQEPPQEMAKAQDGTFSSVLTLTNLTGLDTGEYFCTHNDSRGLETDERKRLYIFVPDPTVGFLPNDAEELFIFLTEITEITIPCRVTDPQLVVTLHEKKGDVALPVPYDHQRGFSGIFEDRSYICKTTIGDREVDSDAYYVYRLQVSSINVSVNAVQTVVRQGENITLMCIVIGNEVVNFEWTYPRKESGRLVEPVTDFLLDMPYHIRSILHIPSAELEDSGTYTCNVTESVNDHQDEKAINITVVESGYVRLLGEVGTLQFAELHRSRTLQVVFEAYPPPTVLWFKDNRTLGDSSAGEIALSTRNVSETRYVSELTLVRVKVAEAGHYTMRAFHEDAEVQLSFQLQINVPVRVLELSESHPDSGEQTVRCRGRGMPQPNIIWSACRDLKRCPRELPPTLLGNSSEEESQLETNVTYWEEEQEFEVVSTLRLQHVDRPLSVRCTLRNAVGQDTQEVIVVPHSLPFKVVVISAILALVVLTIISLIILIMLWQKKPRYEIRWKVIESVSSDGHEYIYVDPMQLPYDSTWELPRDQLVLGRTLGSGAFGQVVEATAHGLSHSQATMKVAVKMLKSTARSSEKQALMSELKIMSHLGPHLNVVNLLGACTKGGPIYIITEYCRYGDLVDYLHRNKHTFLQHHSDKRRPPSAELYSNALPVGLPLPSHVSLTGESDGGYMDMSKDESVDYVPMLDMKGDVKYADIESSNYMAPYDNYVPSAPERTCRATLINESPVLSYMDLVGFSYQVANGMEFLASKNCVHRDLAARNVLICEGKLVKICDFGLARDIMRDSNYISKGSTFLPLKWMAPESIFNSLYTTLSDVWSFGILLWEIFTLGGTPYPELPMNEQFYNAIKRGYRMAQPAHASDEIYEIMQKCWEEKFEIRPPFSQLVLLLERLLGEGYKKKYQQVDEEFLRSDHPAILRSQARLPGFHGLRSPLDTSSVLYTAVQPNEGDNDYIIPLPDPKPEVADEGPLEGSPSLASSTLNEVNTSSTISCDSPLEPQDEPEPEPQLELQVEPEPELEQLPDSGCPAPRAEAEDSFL

This test addresses T1, EP-R chimera (EGFR extracellular, PDGFR transmembrane and cytoplasmic signalling domain) (Homo sapiens, UniProt P00533+P09619).
T1 construct: the platelet-derived growth-factor receptor (PDGFR) transmembrane and cytoplasmic signalling domain; human EGFR extracellular domain (fusion partner); expressed in transfected cells
Description: Tyrosine phosphorylation of EP-R chimera in Rat-1/EP-R cells (immunoprecipitation with mAb 108.1, αPY immunoblot). It counts as cell-based. (In general: A western blot detects proteins with antibodies after separation by electrophoresis.)

Molecules are shown by their SMILES.

For `Cc1cc2ncc(-c3ccccc3)nc2cc1C` [AG1295], the “effect on thrombin-induced tyrosine phosphorylation of the chimeric receptor EP-R” value is listed as “blocked”.
